Assay results taken from patent US20070134753A1, “Assay for determining the activity of fatty acid amide hydrolase” (priority 2002, published 2007).

The chains behind the UniProt entries cited, without tags or fusion partners.
UniProt O00519, whole entry: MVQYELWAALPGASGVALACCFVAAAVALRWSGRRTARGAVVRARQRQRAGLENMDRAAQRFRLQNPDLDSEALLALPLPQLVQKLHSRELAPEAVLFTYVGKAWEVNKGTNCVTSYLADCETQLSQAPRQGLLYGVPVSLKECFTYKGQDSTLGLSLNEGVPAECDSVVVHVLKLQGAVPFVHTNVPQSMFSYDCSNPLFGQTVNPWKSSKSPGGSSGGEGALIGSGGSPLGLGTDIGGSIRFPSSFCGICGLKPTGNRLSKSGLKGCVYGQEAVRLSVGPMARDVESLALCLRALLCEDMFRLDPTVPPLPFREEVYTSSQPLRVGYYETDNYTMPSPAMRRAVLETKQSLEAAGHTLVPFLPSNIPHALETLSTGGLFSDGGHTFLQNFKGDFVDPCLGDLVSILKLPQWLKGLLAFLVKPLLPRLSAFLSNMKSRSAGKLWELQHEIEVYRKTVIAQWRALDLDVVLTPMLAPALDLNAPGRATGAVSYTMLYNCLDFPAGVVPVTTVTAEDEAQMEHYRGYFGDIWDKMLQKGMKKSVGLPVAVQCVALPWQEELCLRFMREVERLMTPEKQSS
UniProt P97612, whole entry: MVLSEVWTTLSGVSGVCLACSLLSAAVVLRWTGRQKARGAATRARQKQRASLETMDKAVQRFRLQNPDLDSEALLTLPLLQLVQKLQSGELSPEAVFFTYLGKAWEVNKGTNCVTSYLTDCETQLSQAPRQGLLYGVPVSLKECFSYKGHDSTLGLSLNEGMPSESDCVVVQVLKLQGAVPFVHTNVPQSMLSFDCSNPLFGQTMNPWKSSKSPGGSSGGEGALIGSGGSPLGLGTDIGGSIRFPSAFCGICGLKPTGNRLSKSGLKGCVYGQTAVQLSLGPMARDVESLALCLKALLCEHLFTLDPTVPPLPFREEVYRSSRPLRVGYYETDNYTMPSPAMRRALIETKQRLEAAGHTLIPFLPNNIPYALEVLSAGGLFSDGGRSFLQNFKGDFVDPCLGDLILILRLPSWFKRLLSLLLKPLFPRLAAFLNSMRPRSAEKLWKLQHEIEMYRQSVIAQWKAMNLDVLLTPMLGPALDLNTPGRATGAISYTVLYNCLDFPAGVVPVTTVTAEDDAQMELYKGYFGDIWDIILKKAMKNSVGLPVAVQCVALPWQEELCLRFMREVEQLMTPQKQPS

Legend:
FAAH [1] = biological target: FAAH (Homo sapiens, UniProt O00519); experiment: FAAH charcoal filter-plate assay with 3H-anandamide in T84 membranes; type: biochemical; conditions: room temperature 60 min, average ± S.E. of 2-5 experiments, each in triplicate
FAAH [2] = biological target: FAAH (Rattus norvegicus, UniProt P97612); conditions: read-out: Literature (ref) IC50; literature data; listed as methyl arachidonyl fluorophosphate; cited from earlier work

## CCCCC/C=C\C/C=C\C/C=C\C/C=C\CCCCP(=O)(F)OC (centres unmarked)
FAAH [1]
  IC50: 0.8 nM
FAAH [2]
  IC50: 1 to 3 nM
